Assay results from patent publication US10584114B2, “Inhibitors of RET” (BLUEPRINT MEDICINES CORPORATION, priority 2015, dated 2020).

The chains behind the UniProt entries cited, without tags or fusion partners. Residues count along the entry.
UniProt P07949, 658-1114 V804L: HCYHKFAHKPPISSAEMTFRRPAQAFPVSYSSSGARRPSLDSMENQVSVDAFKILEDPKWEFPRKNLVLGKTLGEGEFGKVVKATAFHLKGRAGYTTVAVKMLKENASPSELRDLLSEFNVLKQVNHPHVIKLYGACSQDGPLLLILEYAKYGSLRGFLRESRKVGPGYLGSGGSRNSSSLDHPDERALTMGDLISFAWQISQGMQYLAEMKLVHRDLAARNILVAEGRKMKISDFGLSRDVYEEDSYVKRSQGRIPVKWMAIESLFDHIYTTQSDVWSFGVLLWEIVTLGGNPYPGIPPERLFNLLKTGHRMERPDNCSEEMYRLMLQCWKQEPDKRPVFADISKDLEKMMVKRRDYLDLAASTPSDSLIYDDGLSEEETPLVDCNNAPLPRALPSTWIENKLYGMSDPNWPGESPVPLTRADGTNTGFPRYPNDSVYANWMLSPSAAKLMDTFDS
UniProt P07949, 658-1114: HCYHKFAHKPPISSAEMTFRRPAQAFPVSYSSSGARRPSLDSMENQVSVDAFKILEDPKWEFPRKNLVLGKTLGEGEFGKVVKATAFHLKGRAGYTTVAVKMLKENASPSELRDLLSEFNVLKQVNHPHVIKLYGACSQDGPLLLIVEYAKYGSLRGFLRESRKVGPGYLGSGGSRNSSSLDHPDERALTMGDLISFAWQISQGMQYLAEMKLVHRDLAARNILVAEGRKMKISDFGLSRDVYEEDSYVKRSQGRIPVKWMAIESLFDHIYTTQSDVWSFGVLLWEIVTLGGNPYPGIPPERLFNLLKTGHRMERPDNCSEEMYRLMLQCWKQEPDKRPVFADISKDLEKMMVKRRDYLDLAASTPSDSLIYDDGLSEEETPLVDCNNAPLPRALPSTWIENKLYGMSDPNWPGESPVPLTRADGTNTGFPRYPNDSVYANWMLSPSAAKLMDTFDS

Columns and labels:
RET V804L = RET V804L (Homo sapiens (Human), UniProt P07949, V804L); experiment: RET V804L Gatekeeper Mutant Assay at KM (Caliper electrophoretic mobility shift); details: compounds approved or in development for RET-related conditions; read-out: RET V804L Biochemical IC50
wild type RET = wild type RET (Homo sapiens (Human), UniProt P07949); experiment: RET Wild Type Assay at KM (Caliper electrophoretic mobility shift); details: compounds approved or in development for RET-related conditions; read-out: RET wt Biochemical IC50

IC50 (RET V804L): 0.053 µM
IC50 (wild type RET): 0.012 µM
Structure (SMILES): CNC(=O)c1cc(Oc2ccc(NC(=O)Nc3ccc(Cl)c(C(F)(F)F)c3)c(F)c2)ccn1 [Regorafenib, reference compound]
